Sequences of proteins named here, by UniProt entry; tags and fusion partners are left off.
UniProt Q96SW2, whole entry: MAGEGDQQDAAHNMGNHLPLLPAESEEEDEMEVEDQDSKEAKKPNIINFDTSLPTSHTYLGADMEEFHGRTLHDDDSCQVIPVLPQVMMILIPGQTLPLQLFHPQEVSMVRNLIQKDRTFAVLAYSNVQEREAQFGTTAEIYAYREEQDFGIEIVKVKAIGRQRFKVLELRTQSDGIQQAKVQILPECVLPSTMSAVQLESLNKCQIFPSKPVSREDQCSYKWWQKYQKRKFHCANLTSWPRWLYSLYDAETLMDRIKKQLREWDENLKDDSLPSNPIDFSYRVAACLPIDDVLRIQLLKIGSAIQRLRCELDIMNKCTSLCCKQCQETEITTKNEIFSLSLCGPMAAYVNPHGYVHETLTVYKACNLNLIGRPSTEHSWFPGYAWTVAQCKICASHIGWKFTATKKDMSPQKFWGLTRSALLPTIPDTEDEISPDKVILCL
UniProt Q9UKS7, whole entry: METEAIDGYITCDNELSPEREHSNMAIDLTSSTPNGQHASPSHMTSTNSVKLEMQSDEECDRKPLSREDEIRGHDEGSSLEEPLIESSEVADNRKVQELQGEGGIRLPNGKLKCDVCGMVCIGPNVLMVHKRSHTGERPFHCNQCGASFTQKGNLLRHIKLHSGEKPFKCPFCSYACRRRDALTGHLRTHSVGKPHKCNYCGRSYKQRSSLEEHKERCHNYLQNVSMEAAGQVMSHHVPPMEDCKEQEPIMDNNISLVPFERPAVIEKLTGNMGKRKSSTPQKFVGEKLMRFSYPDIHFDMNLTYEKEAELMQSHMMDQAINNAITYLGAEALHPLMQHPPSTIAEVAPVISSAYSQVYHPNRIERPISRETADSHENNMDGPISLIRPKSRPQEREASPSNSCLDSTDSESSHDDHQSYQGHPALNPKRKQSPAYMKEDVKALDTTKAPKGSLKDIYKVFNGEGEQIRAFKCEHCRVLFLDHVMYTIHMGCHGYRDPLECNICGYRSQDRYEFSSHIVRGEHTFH
UniProt Q16531, whole entry partner: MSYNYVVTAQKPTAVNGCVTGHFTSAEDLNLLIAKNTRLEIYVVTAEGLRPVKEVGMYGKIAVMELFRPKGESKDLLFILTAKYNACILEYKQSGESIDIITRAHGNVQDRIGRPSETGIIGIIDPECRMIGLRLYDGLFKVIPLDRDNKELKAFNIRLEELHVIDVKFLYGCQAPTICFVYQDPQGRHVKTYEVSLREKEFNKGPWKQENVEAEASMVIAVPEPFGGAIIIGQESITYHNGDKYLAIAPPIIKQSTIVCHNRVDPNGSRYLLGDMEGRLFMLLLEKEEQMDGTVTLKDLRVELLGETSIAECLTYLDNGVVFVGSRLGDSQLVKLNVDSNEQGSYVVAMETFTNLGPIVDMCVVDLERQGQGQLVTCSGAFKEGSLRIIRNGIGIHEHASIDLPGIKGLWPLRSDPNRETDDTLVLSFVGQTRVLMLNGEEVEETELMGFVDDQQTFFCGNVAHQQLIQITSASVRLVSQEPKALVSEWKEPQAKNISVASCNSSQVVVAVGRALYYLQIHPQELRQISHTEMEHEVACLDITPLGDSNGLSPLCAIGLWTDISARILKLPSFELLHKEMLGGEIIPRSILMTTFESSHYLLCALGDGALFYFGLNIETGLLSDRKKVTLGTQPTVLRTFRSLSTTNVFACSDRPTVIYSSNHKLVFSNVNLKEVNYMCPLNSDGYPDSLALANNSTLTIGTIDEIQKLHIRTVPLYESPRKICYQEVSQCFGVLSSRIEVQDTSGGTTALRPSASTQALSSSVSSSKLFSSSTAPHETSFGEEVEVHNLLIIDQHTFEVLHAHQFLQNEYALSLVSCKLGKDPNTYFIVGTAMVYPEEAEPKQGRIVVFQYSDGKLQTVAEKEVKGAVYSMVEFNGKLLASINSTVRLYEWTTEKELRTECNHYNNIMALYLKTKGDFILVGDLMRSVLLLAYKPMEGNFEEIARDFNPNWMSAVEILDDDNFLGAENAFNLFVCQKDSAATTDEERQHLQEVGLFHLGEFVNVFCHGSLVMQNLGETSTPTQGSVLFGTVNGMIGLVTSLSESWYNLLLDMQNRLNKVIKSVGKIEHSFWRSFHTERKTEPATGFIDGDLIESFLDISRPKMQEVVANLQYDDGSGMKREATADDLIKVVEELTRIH

According to patent publication US20240034723A1, “PIPERIDINYL SMALL MOLECULE DEGRADERS OF HELIOS AND METHODS OF USE” (DANA-FARBER CANCER INSTITUTE, INC., priority 2020, published 2024):

Biological target: IKZF2 (Helios) (Homo sapiens, UniProt Q96SW2+Q9UKS7)
Assay: HiBiT protocol: HiBiT-Helios degradation in MOLT4 cells (Example 63)
Details: read-out: IKZF2 DC50, after 6 hours of treatment, 13-point 10 μM to 0.00026 μM
Procedure: The HiBiT protein tagging system was applied to MOLT4 cells via a CRISPR/Cas-mediated insertion of the HiBiT peptide tag (Promega™) to the N-terminus of the IKZF2 gene locus (Neon™ Transfection System). The resulting HiBiT-Helios stable cell line was treated with the following inventive compounds in triplicates following a 13-point concentration scheme ranging from 10 μM to 0.00026 μM. At the indicated timepoints, the Nano-Glo® HiBiT Lytic Detection system (Promega™) was utilized for detecting bioluminescence of the HiBiT tag in treated cells: the abundance of the tag is proportionate to the level of luminescence. Following normalization to DMSO, dose-response curves were plotted (GraphPad Prism) to determine the concentration points at which 50% of HiBiT-Helios degradation was achieved by each compound. The extent of degradation (range of luminescence) from the highest to lowest concentration points was calculated to determine Dmax.

DC50: 5 to 25 nM
Compound: O=C1CCC(N2Cc3cc(C4CCN(Cc5cccc6c5OCCN(c5ccccc5)C6=O)CC4)ccc3C2=O)C(=O)N1 (stereo not shown)
